Data from paper PMC6650940, “Investigations of Accessibility of T2/T3 Copper Center of Two-Domain Laccase from Streptomyces griseoflavus Ac-993” (International Journal of Molecular Sciences, 2019).

Amino acid sequences for entries named in this document (tags omitted). Residues count along the entry.
UniProt A0A0M4FJ81, 40-322: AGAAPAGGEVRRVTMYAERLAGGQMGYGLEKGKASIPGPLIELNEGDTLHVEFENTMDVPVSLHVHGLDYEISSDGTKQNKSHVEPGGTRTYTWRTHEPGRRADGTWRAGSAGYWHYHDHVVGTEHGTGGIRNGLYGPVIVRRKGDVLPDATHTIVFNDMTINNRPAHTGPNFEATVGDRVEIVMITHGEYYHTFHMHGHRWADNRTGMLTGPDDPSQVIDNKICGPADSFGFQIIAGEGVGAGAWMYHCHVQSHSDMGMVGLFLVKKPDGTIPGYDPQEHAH

Biological target: SgfSL wt (two-domain laccase, Streptomyces griseoflavus Small Laccase) (Streptomyces griseoflavus, UniProt A0A0M4FJ81)
Experiment: inhibition of ABTS oxidation
Settings: ABTS as substrate, pH 4.0, 30 °C

Compound: [N-]=[N+]=N
- % residual activity at 10 mM NaN3: 53.9%
